The nature of the data set: physical data: solubility. The data set is classed as physicochemical.

We go through 1 substance from patent publication EP0658565A1, “Oral products” (UNILEVER PLC, priority 1993, dated 1995).

stannous glucose-6-phosphate [Sn G-6-P]: the solubility in methanol entry (methanol) is on record as “insoluble in methanol”. Under “water”, the solubility in water entry is “freely soluble in water”.
